Laboratory results as given in patent publication US7642239B2, “Inhibition of placenta growth factor (PLGF) mediated metastasis and/or angiogenesis” (Center for Molecular Medicine and Immunology, priority 2005, dated 2010).

Assays:
Format in all cases: cell-based, human
Details in all cases: VEGF 2 nM ± test agent; relative to VEGF-only value; unit assumed
MDA-MB-231 = assay: Wound-healing (motility) assay, MDA-MB-231
Protocol: (§1) MCF-7, MDA-MB-23 1, and MDA-MB-468 breast tumor cell lines or HECs were seeded onto sterile glass coverslips in Petri dishes or six-well plates. When the cells were 70-80% confluent, the monolayers were scratched with a sterile plastic pipet tip.
(§2) Inhibitor concentrations were 50 μM PD98059 (PD98) (mitogen activated protein kinase-kinase 1 [MEK1] inhibitor), 5 nM Wortmannin (phosphatidyl inositol 3 kinase [PI3K] inhibitor), or human recombinant soluble Flt-1 (sFlt-1) (R&D Systems). […] Cells were pre-incubated with PD98 and Wortmannin for 15-30 min before addition of PlGF. Stained (Wright-Giemsa) and mounted coverslips were examined microscopically. Five to ten 100× fields were evaluated by counting the number of cells separated from the wound edges and which appeared to be migrating toward the center of the wound. Results are reported as the average number of cells migrating into the wound/100× field. In some cases data from separate experiments were combined to accommodate inclusion of various treatments in the tables.
(§3) Antibody concentration was 1 μg/ml. MEK1 inhibitor, PD98059 (PD98), 50 μM. PI3K inhibitor, Wortmannin, 5 nM. […] Values for antibody and inhibitor treatments were from separate experiments which included all relevant controls. […] UT denotes untreated controls. *P<0.01 (ANOVA) compared to UT; † P<0.02 (ANOVA) compared to PlGF only. ‡ P<0.001 (ANOVA) compared to PlGF only.

MDA-MB-468 = assay: Wound-healing (motility) assay, MDA-MB-468
Protocol: as §1, §2, §3

MCF-7 = assay: Wound-healing (motility) assay, MCF-7
Protocol: as §1, §2, §3

Measured: Relative activity

VEGF
100%: all assays above
